Columns and labels:
[1] = test system: LPS-stimulated macrophage RAW 264.7; experiment: Scavenging of superoxide anion in LPS-stimulated macrophage RAW 264.7 (2-OH-E+ by LC-MS); type: cell-based; settings: LPS-stimulated RAW 264.7
Description: The antioxidant activity (the ability to scavenge superoxide anion) of the synthesized benzofuran amidated derivative is evaluated by a cell model.
After phagocytosis of bacteria, senescent denatured cells, immune complexes or oxidized low-density lipoproteins, mammalian macrophages cells enter a functional activation state, with enhanced intracellular lysosomal function and increased ROS levels, and they secrete and synthesize inflammatory cytokines. Lipopolysaccharide (LPS) is the main component of the cell wall of Gram-negative bacteria and is the main material basis for its pathogenesis; it can stimulate the production of monocytes/macrophages and release a large amount of reactive oxygen species (mainly including O2^− and H2O2), inflammatory factors such as nitric oxide (NO), IL-1β and Tumor necrosis factor-α (TNF-α) that are involved in the acute phase response of the body, causing inflammatory damage to the body. The present invention utilizes the LPS-stimulated macrophage model to evaluate the antioxidant activity of benzofuran amidated derivatives to scavenge superoxide anion at the cellular level.
13.1 Preparation of Reagents and Standard Solutions
(2) LPS: accurately weigh the appropriate amount of LPS, and prepare a sample stock solution of 0.1 g/ml, with DMEM and store at −20° C. for later use.
(3) Probe Stabilizer DTPA: Weigh accurately the amount of DTPA, prepare a 20 mM sample stock solution with DMSO, dilute to 100 µM with PB, and store at 4° C. for use.
(4) HE: Prepare a 20 mmol/L stock solution by dissolving the probe with dimethyl sulfoxide under anaerobic and dark conditions, and store at −80° C. in the dark. Take it out before use, prepare a 10 μmol/L solution with DMEM, place it on ice and store it in the dark.
LPS stimulated macrophage RAW 264.7 modeling and administration:
(1) RAW 264.7 cells are cultured in Petri dishes (60 mm), 4 mL per dish, and incubated in a 5% CO2 incubator with saturated humidity at 37° C. The experiment is divided into blank group, model group and drug-administered group. The model group and the drug-administered group are respectively added with the modeling agent LPS (prepared with DMEM) and the optimal LPS concentration is 0.1 μg/mL, while the modeling time is 24 h; take vitamin E as a positive control.
(2) After 12 h of cell culture, the supernatant is discarded, and the test drug with a final concentration of 10 μM containing 0.1 μg/mL LPS medium is added, and two parallel holes are provided for each sample to be tested.
(3) Continue to culture in a cell culture incubator for 24 h, the supernatant is discarded, the cells are washed with PBS, and added to DMEM medium containing the probe HE (10 μM) and cultured in the dark for 30 min.
(4) The cells are then washed twice with ice-cold PBS/(100 μM) DTPA, then added 1 mL PBS/(100 μM) DTPA, before the cells are divided into two with a spatula (700 μL and 300 μL) and collected into EP tubes; then they are centrifuged at 13,000 rpm for 10 min at 4° C., the supernatant is removed, and the cell pellet are stored at −80° C. for future use. The first one contains 700 μL cell solution for the determination of LC-MS content of the test substance 2-OH-E^+, while the second one contains 300 μL cell solution for the determination of cell protein concentration.
13.3 LC-MS Analysis Conditions, Sample Pretreatment and Data Processing Methods
(1) LC-MS chromatographic conditions: instrument: Agilent 1100 series LC-QMS; column: Agilent Zorbax SB-Aq (4.6×50 mm, 1.8 μm); mobile phase: 0.1% formic acid-water (phase A); 0.1% formic acid-acetonitrile (B); gradient conditions: 0˜2 min, 5%˜30% B; 2˜5 min, 30% B; 5˜7 min, 30%˜100% B; 7˜10 min, 100% B; flow rate: 1 mL/min; MS condition: positive ion mode, SIM (SIM1: 1.2˜3 min [M+H]^+288 (galantamine); 3˜10 min [M]^+330 (2-OH-E^+)); cracking voltage: 120 V; nitrogen flow rate: 10.0 L/min; […]

Normal hepatocyte LO2 = experiment: Inhibition of uric acid production in xanthine-modelled hepatocyte cell model; type: cell-based; settings: Homo sapiens, L02, LO2 cells, 10 μM xanthine, 24 h, read-out: Inhibition rate (%) of uric acid
Description: The effect of benzofuran amidated derivatives on uric acid production is evaluated using a cell model.
(2) Experimental procedure: Normal hepatocyte LO2 are inoculated in a 6-well plate (plate density 1×10^6 cells/mL), and cell experiments are performed after 4 hours of plating. The experiment is divided into blank group, model group and drug-administered group; the model group and the drug-administered group are respectively added with the modeling agent xanthine (prepared with DMSO as a stock solution), while the blank group is added with the same volume of DMSO, and the Febuxostat is used as a positive control.
(3) Pre-treatment of mass spectrometry: take 100 μL of the medium collected, add MeOH 400 μL, CHCl3 100 μL and H2O 300 μL, perform vortex mixing, and centrifuging at 20000 g for 10 min, then take the upper layer for concentration and dry. Reconstitute H2O 100 μL, and add 10 μL of internal standard substance galantamine (1.25 μM) (final concentration 0.125 μM), centrifuge at 13,000 rpm for 10 min, and take the upper layer for LC-MS analysis.

Row | Compound | superoxide anion scavenging activity compared with Ve [1] | inhibition at 10 µM (Normal hepatocyte LO2) | inhibition at 30 µM (Normal hepatocyte LO2) | inhibition at 50 µM (Normal hepatocyte LO2)
1 | COC(=O)[C@H](Cc1ccc(O)c(O)c1)NC(=O)/C=C/c1ccc(O)c2oc(-c3ccc(O)c(O)c3)cc12 [Compound 5a, Methyl (S,E)-3-(3,4-dihydroxyphenyl)-2-(3-(2-(3,4-dihydroxyphenyl)-7-hydroxybenzofuran-4-yl)acrylamido)propanoate] | better superoxide anion scavenging activity than Ve | – | – | –
2 | O=C(/C=C/c1ccc(O)c2oc(-c3ccc(O)c(O)c3)cc12)N[C@@H](Cc1ccccc1)C(=O)O [Compound 6d, (E)-(3-(2-(3,4-dihydroxyphenyl)-7-hydroxybenzofuran-4-yl)acryloyl)-L-phenylalanine] | better superoxide anion scavenging activity than Ve | – | – | –
3 | O=C(/C=C/c1ccc(O)c2oc(-c3ccc(O)c(O)c3)cc12)N[C@H](Cc1ccc(O)c(O)c1)C(=O)O [Compound 6b, (R,E)-3-(3,4-dihydroxyphenyl)-2-(3-(2-(3,4-dihydroxyphenyl)-7-hydroxybenzofuran-4-yl)acrylamido) propanoic Acid] | better superoxide anion scavenging activity than Ve | – | – | –
4 | COC(=O)[C@@H](Cc1ccc(O)c(O)c1)NC(=O)/C=C/c1ccc(O)c2oc(-c3ccc(O)c(O)c3)cc12 [Compound 5b] | better superoxide anion scavenging activity than Ve | 28.6% | 46.1% | 62.6%
5 | COC(=O)[C@H](C)NC(=O)/C=C/c1ccc(O)c2oc(-c3ccc(O)c(O)c3)cc12 [Compound 5c, Methyl (E)-(3-(2-(3,4-dihydroxyphenyl)-7-hydroxybenzofuran-4-yl)acryloyl)-L-alaninate] | better superoxide anion scavenging activity than Ve | – | – | –
6 | O=C(/C=C/c1ccc(O)c2oc(-c3ccc(O)c(O)c3)cc12)N[C@@H](Cc1ccc(O)cc1)C(=O)O [Compound 6e, (E)-(3-(2-(3,4-dihydroxyphenyl)-7-hydroxybenzofuran-4-yl)acryloyl)-L-tyrosine] | better superoxide anion scavenging activity than Ve | 31.5% | 41.6% | 57.2%
